Laboratory results published in US9925231B2, “Formulations of guanylate cyclase C agonists and methods of use” (SYNERGY PHARMACEUTICALS, INC., priority 2010, dated 2018).

Experiment: Excipient compatibility: percent purity (HPLC) of SP-304 in binary mixtures stored at 40 C/75RH
Format: physicochemical
Settings: closed glass vial, 3 months
From the text: For solid excipients the binary mixtures were comprised of 9.1% or 50% excipient. Glass vials were stored at 40 C/75RH open or closed.

CC(C)C[C@H](NC(=O)[C@@H]1CSSC[C@@H]2NC(=O)[C@H](CC(C)C)NC(=O)[C@H](CCC(=O)O)NC(=O)[C@@H](NC(=O)[C@H](CCC(=O)O)NC(=O)[C@H](CC(=O)O)NC(=O)[C@@H](N)CC(N)=O)CSSC[C@H](NC(=O)[C@H](C)NC(=O)[C@H](C(C)C)NC(=O)[C@H](CC(N)=O)NC(=O)[C@H](C(C)C)NC2=O)C(=O)N[C@@H]([C@@H](C)O)C(=O)NCC(=O)N1)C(=O)O [SP-304, Asn^1-Asp^2-Glu^3-Cys^4-Glu^5-Leu^6-Cys^7-Val^8-Asn^9-Val^10-Ala^11-Cys^12-Thr^13-Gly^14-Cys^15-Leu^16]
percent purity of SP-304 (HPLC), Closed 3 M: 84.1%
